Laboratory results: PubChem BioAssay AID588621 (Sanford-Burnham Center for Chemical Genomics, 2011)
This is a selection; strong and weak results do not stand in their true shares. Some structures show a salt or complex split into parts, the way the source records it. The source made the active and inactive calls.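 Rule for the calls: active = inhibition at 20 µM, scaled per plate between control wells, above about 37% (limit read from the data); inactive = the rest.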

Sequences of proteins named here, by UniProt entry; tags and fusion partners are left off.
UniProt P54829, whole entry: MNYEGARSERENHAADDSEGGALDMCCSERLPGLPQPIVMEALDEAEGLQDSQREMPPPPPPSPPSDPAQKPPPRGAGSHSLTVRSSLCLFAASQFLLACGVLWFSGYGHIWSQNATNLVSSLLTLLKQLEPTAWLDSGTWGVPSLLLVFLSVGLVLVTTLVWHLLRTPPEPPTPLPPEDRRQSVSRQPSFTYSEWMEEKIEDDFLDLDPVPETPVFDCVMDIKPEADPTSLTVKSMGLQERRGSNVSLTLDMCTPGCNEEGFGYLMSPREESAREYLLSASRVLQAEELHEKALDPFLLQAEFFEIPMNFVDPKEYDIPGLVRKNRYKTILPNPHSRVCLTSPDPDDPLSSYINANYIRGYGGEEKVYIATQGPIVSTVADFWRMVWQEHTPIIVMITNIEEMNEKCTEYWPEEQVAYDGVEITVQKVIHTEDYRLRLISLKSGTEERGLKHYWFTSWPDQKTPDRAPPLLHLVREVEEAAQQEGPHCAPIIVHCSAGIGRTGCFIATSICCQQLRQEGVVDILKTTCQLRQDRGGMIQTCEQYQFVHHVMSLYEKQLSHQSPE

Target: Tyrosine-protein phosphatase non-receptor type 5 (Homo sapiens) (UniProt P54829)
Assay: STEP phosphatase inhibitors, primary screen, biochemical, fluorescence intensity, uHTS (AID 588621);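 note: 0% = DMSO with enzyme and substrate and 100% = substrate only without enzyme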
Details: recombinant STEP, OMFP fluorogenic substrate, at 20 µM, active compounds read high
In short: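 Also added – OMFP at 25 µM · Test system – STEP tyrosine phosphatase · Technique – FITC-channel fluorescence of OMFP product · Schedule – 20 min at room temperature, dark · Evaluation – control-normalized % inhibition with plate pattern correction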

SMILES | inhibition
COc1ccc2c(c1O)-c1c(O)c(OC)cc3c1[C@H](C2)[N+](C)(C)CC3.O=[N+]([O-])c1cc([N+](=O)[O-])c([O-])c([N+](=O)[O-])c1[O-] | inactive: 0.4%
O=C(OCCN1CCN(CCOCc2ccccc2)CC1)C(O)(c1ccccc1)c1ccccc1 | inactive: -4.7%
O=C(OC1CN2CCC1CC2)c1ccc([N+](=O)[O-])cc1 (stereo not given) | inactive: -0.9%
CC(C)c1ccc(OP(C)(=O)Nc2ccc(SC(F)(F)F)cc2)cc1 (stereo not given) | inactive: 0.6%
CP(=O)(Nc1ccccc1F)Oc1ccccc1 (stereo not given) | inactive: -1.4%
O=[N+]([O-])c1cc([N+](=O)[O-])c(Nc2ccc(Cl)cc2)c([N+](=O)[O-])c1 | inactive: 1.6%
O=[N+]([O-])c1cc([N+](=O)[O-])c(OC2CCCCC2O)c([N+](=O)[O-])c1 (stereo not given) | inactive: 0.3%
CCCCCOc1ccc(NP(C)(=O)Oc2ccc(Cl)cc2Cl)cc1 (stereo not given) | inactive: 0.1%
CP(=O)(Nc1ccccc1)Oc1ccc(F)cc1 (stereo not given) | inactive: 2.6%
CCN(CC)CCCOC(=O)C(O)(c1ccccc1)C1CCCCC1 (stereo not given) | inactive: -1.9%
Cc1c([N+](=O)[O-])cc([N+](=O)[O-])c(Br)c1[N+](=O)[O-] | inactive: 1.3%
COc1ccc(OP(C)(=O)Nc2ccc(SC(F)(F)F)cc2)cc1 (stereo not given) | inactive: -4.1%
CCOC(=O)c1ccc(NP(C)(=O)Oc2ccc(F)cc2)cc1 (stereo not given) | inactive: -2.8%
Cc1c(C(c2ccc3c(c2)OCO3)c2c(C)n(C)n(-c3ccccc3)c2=O)c(=O)n(-c2ccccc2)n1C.O=[N+]([O-])c1cc([N+](=O)[O-])c(O)c([N+](=O)[O-])c1 | inactive: -3.1%
Cc1cc(-c2cccc3ccccc23)c(C)cn1.O=[N+]([O-])c1cc([N+](=O)[O-])c(O)c([N+](=O)[O-])c1 | inactive: -0.9%
O=[N+]([O-])c1cc([N+](=O)[O-])c(NCC2CCS(=O)(=O)C2)c([N+](=O)[O-])c1 (stereo not given) | inactive: 0.5%
O=[N+]([O-])c1ccc(OP2(=O)COCCO2)cc1 (stereo not given) | inactive: 0.4%
COc1ccc(NP(C)(=O)Oc2ccccc2OC)cc1 (stereo not given) | inactive: 0.9%
CN(C)CCOC(=O)C(O)(c1ccccc1)C1CCCCC1 (stereo not given) | inactive: -4.8%
COc1ccc(OP(C)(=O)Nc2cccc(Br)c2)cc1 (stereo not given) | inactive: -0.4%
Cc1ccccc1NP(C)(=O)Nc1ccccc1C | inactive: 0.1%
CP(=O)(Nc1ccc2c(c1)OCCO2)Oc1ccccc1 (stereo not given) | inactive: 0%
CCOP(C)(=S)SCC(=O)NC(C)(CC)C(=O)O (stereo not given) | inactive: -4.1%
CP(=O)(Nc1ccc(SC(F)(F)F)cc1)Oc1ccc(F)cc1 (stereo not given) | inactive: 1.9%

SMILES | inhibition
CN(C)C(=O)c1c([N+](=O)[O-])cc([N+](=O)[O-])cc1[N+](=O)[O-] | inactive: -0.6%
CP(=O)(Nc1ccc(Cl)cc1)Oc1ccc(F)cc1 (stereo not given) | inactive: -0.5%
COc1ccccc1OP(C)(=O)Nc1ccccc1Br (stereo not given) | inactive: -1.3%
CC(C)(C)c1ccc(OP(C)(=O)O)cc1 | inactive: -1.5%
CP(=O)(Oc1ccccc1)N1CCOC1=O (stereo not given) | inactive: 0.9%
CCc1ccc(OP(C)(=O)Nc2cccnc2)cc1 (stereo not given) | inactive: 2.2%
COc1ccccc1OP(C)(=O)Nc1c(C)n(C)n(-c2ccccc2)c1=O (stereo not given) | inactive: -0.3%
O=C(OCCCN1CCCC1)C(O)(c1ccccc1)C1CCCCC1 (stereo not given) | inactive: -2.8%
CCN(CC)CC(O)COC(=O)C(O)(c1ccccc1)C1CCCCC1 (stereo not given) | inactive: -1.6%
COc1ccc(OP(C)(=O)Nc2ccc(Br)cc2)cc1 (stereo not given) | inactive: 1.2%
CP(=O)(OC12CC3CC(CC(C3)C1)C2)OC12CC3CC(CC(C3)C1)C2 | inactive: -2.2%
CCOC(=O)c1ccc(NP(C)(=O)Oc2ccc(Cl)cc2)cc1 (stereo not given) | inactive: -1.4%
CP(=O)(Nc1ccc(Cl)cc1Cl)Oc1ccccc1 (stereo not given) | inactive: -4.3%
CCCCCCCCCCCCCCCC1C[N+](C)(C)CCOP(C)(=O)O1 (stereo not given) | inactive: 5%
CP(=O)(OCCOc1ccccc1)OCCOc1ccccc1 | inactive: -1.4%
COc1ccc(OP(C)(=O)Nc2ccccc2Br)cc1 (stereo not given) | inactive: 12.5%
COc1ccccc1OP(C)(=O)Nc1ccc(C)c(C)c1 (stereo not given) | inactive: -1.1%
O=C1C(O)=C([N+](=O)[O-])C(=O)C(O)=C1[N+](=O)[O-] | active: 89.7%
Cc1cc(C)cc(OP(C)(=O)Nc2cccc(C(F)(F)F)c2)c1 (stereo not given) | inactive: 1.1%
CCc1ccc(OP(C)(=O)O)cc1 | inactive: 3.6%
CP(=O)(Nc1ccccn1)Oc1ccccc1 (stereo not given) | inactive: -0.1%
COc1ccccc1OP(C)(=O)Nc1ccc(C)cc1C (stereo not given) | inactive: -3.6%
Cc1c(NP(C)(=O)Oc2ccc(C(C)C)cc2)c(=O)n(-c2ccccc2)n1C (stereo not given) | inactive: 4.3%
O=[N+]([O-])c1cc([N+](=O)[O-])c(Nc2ccccn2)c([N+](=O)[O-])c1 | inactive: -0.7%

SMILES | inhibition
CN(C)CCOC(=O)C(O)(c1ccccc1)C1CCCC1 (stereo not given) | inactive: -2%
COc1ccc(OP(C)(=O)Nc2ccccn2)cc1 (stereo not given) | inactive: -0.1%
COc1ccccc1OP(C)(=O)Nc1ccc(Br)cc1 (stereo not given) | inactive: 2.4%
CCN(CC)CCCOC(=O)C(O)(c1ccccc1)c1ccccc1 | inactive: 0.4%
COc1ccccc1OP(C)(=O)Nc1cc(Cl)ccc1C (stereo not given) | inactive: -1.2%
COc1ccc(OP(C)(=O)Nc2cccc(F)c2)cc1 (stereo not given) | inactive: -1.3%
Cc1cc(C)cc(OP(C)(N)=O)c1 (stereo not given) | inactive: -4.5%
CCOC(=O)c1ccc(NP(C)(=O)Oc2ccccc2)cc1 (stereo not given) | inactive: 3.8%
COc1ccccc1OP(C)(=O)Nc1ccc(C)cc1 (stereo not given) | inactive: 3.4%
Cc1ccc(NP(C)(=O)Oc2ccccc2)c(C)c1 (stereo not given) | inactive: -7%
CC(C)(C)c1ccc(OP(C)(=O)Nc2ccc(SC(F)(F)F)cc2)cc1 (stereo not given) | inactive: -0.3%
Cc1cccc(C)c1OP(C)(N)=O (stereo not given) | inactive: -1.3%
O=[N+]([O-])c1ccc2c(c1)C=Nc1ccccc1O2 | inactive: 1.3%
O=[N+]([O-])c1cc([N+](=O)[O-])c(Nc2cccnc2)c([N+](=O)[O-])c1 | inactive: -3%
COc1ccccc1OP(C)(=O)Nc1ccccc1 (stereo not given) | inactive: -0.5%
CP(=O)(Nc1ccccc1Br)Oc1ccccc1 (stereo not given) | inactive: -0.1%
CP(=S)(Nn1cnnc1)Oc1ccccc1 (stereo not given) | inactive: -0.9%
CP(=O)(Nc1ccccn1)Oc1ccc(Cl)cc1 (stereo not given) | inactive: 0.2%
CCOP(C)(=S)SCC(=O)NC(C)C(=O)O (stereo not given) | inactive: -1.6%
O=[N+]([O-])c1cc([N+](=O)[O-])c(O)c([N+](=O)[O-])c1.c1ccc(Oc2ccncc2)cc1 | inactive: -0.7%
CCOC(=O)c1ccc(NP(C)(=O)Oc2ccc(OC)cc2)cc1 (stereo not given) | inactive: 0.3%
CP(=O)(NC(=O)Nc1ccccc1)Oc1ccccc1 (stereo not given) | inactive: -1.7%
CCc1ccc(OP(C)(=O)N2CCN(c3ccc([N+](=O)[O-])cc3)CC2)cc1 (stereo not given) | inactive: 2.2%
Cc1cc(C)cc(OP(C)(=O)Nc2ccc(SC(F)(F)F)cc2)c1 (stereo not given) | inactive: -1.8%

SMILES | inhibition
CP(=O)(Nc1ccc(SC(F)(F)F)cc1)Oc1ccc(Cl)cc1 (stereo not given) | inactive: -1.2%
Cc1ccc(Nc2c([N+](=O)[O-])cc([N+](=O)[O-])cc2[N+](=O)[O-])cc1 | inactive: 1%
Cc1cccc(C)c1OP(C)(=O)Nc1ccc(SC(F)(F)F)cc1 (stereo not given) | inactive: 0.5%
CP(=O)(Oc1ccccc1)OC(c1ccccc1)C(F)(F)F (stereo not given) | inactive: 7.4%
Cc1nc2ccc3ccccc3c2s1.O=[N+]([O-])c1cc([N+](=O)[O-])c(O)c([N+](=O)[O-])c1 | inactive: 2.8%
O=[N+]([O-])c1cc([N+](=O)[O-])c(-c2cnn(-c3ccccc3)c2)c([N+](=O)[O-])c1 | inactive: 3.5%
CN(Cc1cccnc1)C(=O)COc1ccc(Cl)c(Cl)c1.O=[N+]([O-])c1cc([N+](=O)[O-])c(O)c([N+](=O)[O-])c1 | inactive: 1.2%
O=[N+]([O-])c1cc([N+](=O)[O-])c(-n2nnc3ccccc32)c([N+](=O)[O-])c1 | inactive: -2.1%
CCCOc1ccc(NP(C)(=O)Oc2ccc(Cl)cc2)cc1 (stereo not given) | inactive: -1.2%
CP(=O)(Nc1ccc(SC(F)(F)F)cc1)Oc1ccccc1 (stereo not given) | inactive: -2.6%
CN1CCCCC1COC(=O)C1(O)c2ccccc2CCc2ccccc21 (stereo not given) | inactive: 1.7%
COc1ccccc1OP(C)(=O)Nc1c(C)cccc1C (stereo not given) | inactive: -1.1%
CC1=C2N=C(C=C3N=C(C(C)=C4[N-][C@@](C)([C@@H]5N=C1[C@](C)(CCC(=O)NC[C@@H](C)OP(=O)([O-])O[C@H]1[C@@H](O)[C@@H](n6cnc7cc(C)c(C)cc76)O[C@@H]1CO)[C@H]5CC(N)=O)[C@@](C)(CC(N)=O)[C@@H]4CCC(N)=O)[C@@](C)(CC(N)=O)[C@@H]3CCC(N)=O)C(C)(C)[C@@H]2CCC(N)=O.[C-]#N.[Co+3] | inactive: 7.1%
O=[N+]([O-])c1cc([N+](=O)[O-])c(Nc2nnnn2CCO)c([N+](=O)[O-])c1 | inactive: -0.7%
CCOC(=O)C(CC)C1=NC(C)(C)Cc2ccccc21.O=[N+]([O-])c1cc([N+](=O)[O-])c(O)c([N+](=O)[O-])c1 (stereo not given) | inactive: 0%
CC1=NCCc2c1[nH]c1ccccc21.O=[N+]([O-])c1cc([N+](=O)[O-])c(O)c([N+](=O)[O-])c1 | inactive: -1.9%
O=C(O)c1cccc(Nc2c([N+](=O)[O-])cc([N+](=O)[O-])cc2[N+](=O)[O-])c1 | inactive: 3.9%
Cc1cc(C)cc(OP(C)(=O)Nc2ccccn2)c1 (stereo not given) | inactive: -2.5%
CP(=O)(Nc1cccc(Br)c1)Oc1ccccc1 (stereo not given) | inactive: -2%
Cc1ccc(C)c(NP(C)(=O)Oc2ccccc2)c1 (stereo not given) | inactive: -4.5%
Cc1cc(C)cc(OP(C)(=O)Nc2ccc(C)cc2C)c1 (stereo not given) | inactive: 0.3%
CCOC(=O)c1ccc(NP(C)(=O)Oc2cc(C)cc(C)c2)cc1 (stereo not given) | inactive: -1.1%
COc1ccccc1OP(C)(=O)Nc1cccc(Br)c1 (stereo not given) | inactive: -1.1%
